The target of this assay is Epithelial Cell Kinase (ECK) (Homo sapiens, UniProt P29317). The assay is classed as biochemical. Conditions: pH 7.2; nonradioactive format.

The chains behind the UniProt entries cited, without tags or fusion partners. Residues count along the entry.
UniProt P29317, 24-976, species assumed: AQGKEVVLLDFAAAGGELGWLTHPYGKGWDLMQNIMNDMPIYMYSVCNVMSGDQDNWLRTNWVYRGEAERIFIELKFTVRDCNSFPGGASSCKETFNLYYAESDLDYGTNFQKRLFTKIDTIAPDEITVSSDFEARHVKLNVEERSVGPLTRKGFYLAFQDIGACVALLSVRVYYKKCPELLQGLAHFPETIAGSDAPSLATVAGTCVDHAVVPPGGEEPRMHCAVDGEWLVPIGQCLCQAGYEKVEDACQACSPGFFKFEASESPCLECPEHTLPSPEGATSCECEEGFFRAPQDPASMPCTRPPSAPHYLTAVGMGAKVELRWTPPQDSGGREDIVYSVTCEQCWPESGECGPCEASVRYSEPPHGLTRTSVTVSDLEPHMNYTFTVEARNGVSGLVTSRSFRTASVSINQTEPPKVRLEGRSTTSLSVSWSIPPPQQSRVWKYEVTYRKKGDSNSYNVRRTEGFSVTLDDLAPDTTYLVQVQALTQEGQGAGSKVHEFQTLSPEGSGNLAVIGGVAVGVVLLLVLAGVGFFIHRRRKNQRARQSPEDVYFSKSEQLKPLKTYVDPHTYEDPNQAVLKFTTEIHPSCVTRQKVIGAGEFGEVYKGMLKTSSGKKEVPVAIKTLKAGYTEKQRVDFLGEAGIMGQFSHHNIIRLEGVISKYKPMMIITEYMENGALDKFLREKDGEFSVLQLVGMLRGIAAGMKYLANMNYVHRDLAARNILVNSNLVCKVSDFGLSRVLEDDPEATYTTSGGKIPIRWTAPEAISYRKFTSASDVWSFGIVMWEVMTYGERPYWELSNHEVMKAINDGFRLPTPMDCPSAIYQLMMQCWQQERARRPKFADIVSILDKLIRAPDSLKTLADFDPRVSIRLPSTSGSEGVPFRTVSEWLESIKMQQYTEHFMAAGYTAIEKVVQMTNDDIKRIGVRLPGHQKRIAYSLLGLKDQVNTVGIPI

The text below walks through data of patent EP0973746B1, “SUBSTITUTED 3-CYANO QUINOLINES” (Wyeth Holdings Corporation, priority 1997, dated 1998).

What is called IC50 is the concentration needed to halve the response being measured.

For the substance “4-(4-Chloro-2-fluoro-phenylamino)-5,8-dimethoxy-quinoline-3-carbonitrile [Example 238]”, the IC50 was greater than 30.3 µM.
